Test results taken from PMC6625945 (The Journal of steroid biochemistry and molecular biology, 2019).

Experiments:
AKR1C3 [1] = molecular target: T1, AKR1C3 (Homo sapiens, UniProt P42330); assay: Inhibition of testosterone production in LNCaP-AKR1C3 cells; format: cell-based; conditions: for Percent Testosterone Formed: LNCaP-AKR1C3 cells, 100 nM [^3H]-4-androstene-3,17-dione, 48 h
T1 sequence (P42330 1-323): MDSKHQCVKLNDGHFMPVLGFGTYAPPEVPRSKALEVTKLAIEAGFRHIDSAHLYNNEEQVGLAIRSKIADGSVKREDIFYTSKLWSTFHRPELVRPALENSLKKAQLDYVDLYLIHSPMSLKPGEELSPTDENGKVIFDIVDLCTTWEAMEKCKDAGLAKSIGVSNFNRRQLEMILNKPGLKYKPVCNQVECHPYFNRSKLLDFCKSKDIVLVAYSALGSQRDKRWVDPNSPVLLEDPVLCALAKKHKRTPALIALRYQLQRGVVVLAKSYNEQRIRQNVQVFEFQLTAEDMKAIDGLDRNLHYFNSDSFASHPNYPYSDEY

AKR1C3 [2] = molecular target: T1, AKR1C3; assay: Inhibition of Δ^4-AD reduction to testosterone by recombinant AKR1C3; format: biochemical

Percent Testosterone Formed (AKR1C3 [1]; 10 μM inhibitor): 12.24%
Percent Testosterone Formed (AKR1C3 [1]; 30 μM inhibitor): 0%
inhibition at 30 µM (AKR1C3 [1]; read-out: Percent inhibition of testosterone production): 100%
Pattern of inhibition of Δ^4-AD reduction (AKR1C3 [2]): competitive inhibition
SMILES: COc1ccc2[nH]c(C(=O)N3CCC(CC(C)(C)O)CC3)cc2c1 [ASP9521, 1-(-{1-[(5-methoxy-1H-indol-2-yl)carbonyl]piperidin-4-yl}-2-methylpropan-2-ol), reference compound]
